Reference: US6747164B2, “Use of amine compounds with improved biodegradability as adjuvants for pesticides and fertilizers” (priority 2000, dated 2004)

Columns and labels:
Elymus repens = experiment: Greenhouse test of glyphosate/adjuvant formulations with Elymus repens; type: in vivo; conditions: Example 3, Table 6, glyphosate/adjuvant 2:1, 7 weeks after spraying
Lolium rigidum = experiment: Greenhouse test of glyphosate/adjuvant formulations with Lolium rigidum; type: in vivo; conditions: Example 3, Table 8, glyphosate/adjuvant 2:1, 4 weeks after spraying
[1] = Biodegradability, closed bottle test OECD Test 301D; conditions: after 28 days
Brassica napus = experiment: Greenhouse test of glyphosate/adjuvant formulations with Brassica napus; type: in vivo; conditions: Example 3, Table 7, glyphosate/adjuvant 2:1, 4 weeks after spraying

Substance	Effect (Elymus repens; glyphosate 0.15 kg a.e./ha) [%]	Effect (Elymus repens; glyphosate 0.25 kg a.e./ha) [%]	Effect (Elymus repens; glyphosate 0.75 kg a.e./ha) [%]	Effect (Lolium rigidum; glyphosate 0.08 kg a.e./ha) [%]	Effect (Lolium rigidum; glyphosate 0.15 kg a.e./ha) [%]	Effect (Lolium rigidum; glyphosate 0.25 kg a.e./ha) [%]	Biodegradability [1] [%]	Effect (Brassica napus; glyphosate 0.15 kg a.e./ha) [%]	Effect (Brassica napus; glyphosate 0.25 kg a.e./ha) [%]	Effect (Brassica napus; glyphosate 0.75 kg a.e./ha) [%]
Monoester between polyethyleneglycol (4.5 EO)-monococo ether monocarboxymethyl ether and N-methyldiethanolamine	37	83	98	50	77	95	75	55	70	92
Diester between polyethyleneglycol (4.5 EO)-monococo ether monocarboxymethyl ether and N-methyldiethanolamine	–	–	–	–	–	–	21	–	–	–
